Test [1] has as its system MB49 murine urothelial carcinoma. In words: MB49 efficacy studies. The following applies: MB49 mouse tumor model, truncated dosing schedules. The class given is in vivo.
The subject of the next test is DPP8/9. The following applies: read-out: IIC50 DPP8/9.

The structures appear in SMILES notation. pIC50: −log10 of the molar value. Where only a bound is given, the exact number is not on record here.

Turning to `CC(C)(F)[C@H](N)C(=O)N1CCC[C@H]1B(O)O` [compound 4268], the antitumor activity entry in test [1] was “displays antitumor activity”.
Consider `CN(CB(O)O)C(=O)[C@@H](N)CCC(=O)O` [compound 2408], for which the pIC50 in the test on DPP8/9 was less than 4.70.

(Values after patent US11559537B2, “Combination therapies using caspase-1 dependent anticancer agents and PGE2 antagonists” (Trustees of Tufts College, priority 2017, dated 2023).)
